## Measured affinities in a library of Ab-91 heavy chain variants

Target peptide (SARS-CoV-2 spike, HR2 region): PDVDLGDISGINAS

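The starting antibody came from a phage panning campaign against this peptide. Library AAYL51 holds single substitutions and randomly drawn double and triple substitutions in the CDRs. The scFvs were displayed on barcoded MATa yeast, the peptide on MATalpha yeast. Binding brings cells together so that they mate, and sequencing counts the barcode pairs among the diploids. A regression on co-assayed BCL2-family reference pairs converts the normalised counts of each replicate to an apparent Kd. Each pool was mated in three replicate cultures.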

Each scFv is VL, the linker GGGGSGGGGSGGGGS, VH, as in the parent Ab-91, and differs from it in the CDRs of the heavy chain only.
VL: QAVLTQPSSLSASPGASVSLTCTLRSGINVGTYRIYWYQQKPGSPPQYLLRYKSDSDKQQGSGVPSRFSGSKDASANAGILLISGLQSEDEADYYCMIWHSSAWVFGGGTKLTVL
VH: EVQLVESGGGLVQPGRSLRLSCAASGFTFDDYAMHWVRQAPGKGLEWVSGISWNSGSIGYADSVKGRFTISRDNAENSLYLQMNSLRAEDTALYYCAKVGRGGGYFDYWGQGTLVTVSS

The parent's heavy chain CDRs are GFTFDDYAMH, GISWNSGSIGYADSVK, VGRGGGYFDY; each variant's own CDRs replace them letter for letter. Kd is apparent (estimated from mating counts) and averaged on the log scale over replicates with a signal. Smaller is tighter. An entry "no signal" has no value in the source: the pair was not observed among the diploids in any replicate. This suggests poor binding but is not conclusive.

CDR-H1,CDR-H2,CDR-H3,apparent Kd,detected,empty controls
GFIFDDYAMH,GISWNSPSIGYADSVK,VGRGGGYFDW,no signal,0 of 3,0 of 9
GFTFDDYAIH,GISWNSGCIGYADLVK,VGRGGGYFDY,25 µM,1 of 3,0 of 9
GFTFDDYAMH,GITWNSGSIGYADSHC,VGRGGGYFDY,no signal,0 of 3,0 of 9
GFTGDDYAMH,GISWNSGSIDYADSYK,VGRGGGYFDY,660 µM,1 of 3,1 of 9
GFTFDDYAMH,GIMWNRGSIGYAKSVK,VGRGGGYFDY,120 µM,1 of 3,2 of 9
GFTFDDIAMH,GISDNSGLIGYADSVK,VGRGGGYFDY,660 µM,1 of 3,8 of 9
GITFDDYHMH,GISWNSGSITYADSVK,VGRGGGYFDY,65 µM,3 of 3,4 of 9
GFTFDFYAMA,GISWNSGSIGYADSVK,VGRGIGYFDY,12 µM,2 of 3,3 of 9
GFTFDDYAMV,AISWNSGSIGYADSVK,VGRGPGYFDY,15 µM,2 of 3,2 of 9
GFTFDDYAMH,GISWNSASIYYADSVK,VGRGGGYFDY,no signal,0 of 3,0 of 9
GFTFDDYAMY,GISHNSGSIGYADSVK,VGRGGGYFDK,1.6 µM,1 of 3,0 of 9
GFTFDDYAMH,GISWNSGSIGYWDSVK,VGRGGGYFQY,220 µM,3 of 3,6 of 9
GFTFDDYAMH,GISWNSCSIGYADSVT,VGRRGGYFDY,2.2 µM,1 of 3,2 of 9
GFTVDDYAMH,GISWNSGSRGYVDSVK,VGRGGGYFDY,no signal,0 of 3,1 of 9
GFTFDDYAMH,GISWNSGSIRYDDSVE,VGRGGGYFDY,430 µM,3 of 3,6 of 9
GFTFDDYAMH,GISWNSGSIGYACSVK,VGRGWGYCDY,no signal,0 of 3,0 of 9
GFTFDDYAMH,WISWPSGSIGYADSVK,VGRGGGYFDY,37 µM,2 of 3,6 of 9
GFTFDDYAMH,GISWNSDSIGYADSVK,VGRGGTYFDY,1.0 mM,1 of 3,1 of 9
GFSFDCYAMH,GISWNSGSIWYADSVK,VGRGGGYFDY,4.8 µM,1 of 3,1 of 9
GFTFDDYAMH,GISWNSGSIGTADEVK,WGRGGGYFDY,390 nM,3 of 3,2 of 9
GFTFDEYAMH,GISWNSGSMGGADSVK,VGRGGGYFDY,32 µM,2 of 3,5 of 9
GFTFDDYAMH,GISHNSGSIGYADSVK,VGTGGGYGDY,400 nM,3 of 3,1 of 9
GFTFDDYAMH,GISWNSNSIGYADSVK,VGQGGGYFDH,no signal,0 of 3,0 of 9
GFTFDDYAMH,GISWNSASIGYADTVK,VGVGGGYFDY,36 nM,3 of 3,3 of 9
GFTFDDYAMH,FISWNSGSRGYWDSVK,VGRGGGYFDY,no signal,0 of 3,3 of 9

Second part, the sequence after the result:

apparent Kd,detected,empty controls,CDR-H1,CDR-H2,CDR-H3
92 µM,1 of 3,0 of 9,GFTFDIYAMH,GISWNSGSIGSADSVK,VGRGGGYFIY
no signal,0 of 3,1 of 9,GTTFDDYAMR,GISWLSGSIGYADSVK,VGRGGGYFDY
no signal,0 of 3,1 of 9,GFTFDDYAMH,GISMNSHSIGWADSVK,VGRGGGYFDY
420 µM,3 of 3,6 of 9,GFTFDDYAMA,GISWNSMSIGYADSVK,VSRGGGYFDY
no signal,0 of 3,0 of 9,GFTFDDYAWH,GISWNSGSIGYADSVK,VGRGGGYQKY
no signal,0 of 3,4 of 9,GFTFDDYRMH,GISWNSGSAGYADSVK,VGRGAGYFDY
no signal,0 of 3,0 of 9,GFTFDTYAMH,SISWNSGSIGYADSVK,PGRGGGYFDY
no signal,0 of 3,0 of 9,GFTFDDYAMH,GINSNSGGIGYADSVK,VGRGGGYFDY
no signal,0 of 3,0 of 9,GFTFDDYAMH,GISWNSGSIGYPDSSK,VGRGWGYFDY
no signal,0 of 3,0 of 9,GFTFDDYAMH,GISWNSNSMGYADSVG,VGRGGGYFDY
260 µM,2 of 3,6 of 9,GFTFDDYAMR,GISWNSGSIGYRDSVK,VGRGGDYFDY
2.0 µM,1 of 3,3 of 9,EFTFSDYAMH,GISWNSGSIGYKDSVK,VGRGGGYFDY
3.4 µM,3 of 3,3 of 9,NFTFDDYAMH,GISWNSGDIGYADSVK,VGRGWGYFDY
99 µM,1 of 3,4 of 9,GFTFDDYAMH,GIVWNSGSIGYAISVK,VGRGGGDFDY
130 nM,3 of 3,1 of 9,GFTFIDYAMH,GISWNSGSIGYADSFK,VGRGGGYFDY
no signal,0 of 3,1 of 9,EFPFDDYAMH,GISWNSGSIMYADSVK,VGRGGGYFDY
no signal,0 of 3,0 of 9,GFTFDDYAMC,GISWNSGSIGYCDSVK,VGRGGGYFDY
no signal,0 of 3,5 of 9,GFTFDDYAMH,GISWNSGSIGYTDSVK,VGRQGGYFDC
no signal,0 of 3,0 of 9,GFTFDDYAMH,GISWNSGVIGYADSVK,VGNGGGYFDY
no signal,0 of 3,0 of 9,GPTFDDYAMH,GDSWNSGSIGYADSVK,VGRGGGYFDY
no signal,0 of 3,2 of 9,GFTFDDYAMH,GISWNVGSIGYADSVK,VGRGGGYFSY
no signal,0 of 3,0 of 9,GFTFDDYAWH,GISWNSGSIGYADSVK,VGRGGGYFYK
8.1 µM,1 of 3,1 of 9,GAQFDDYAMH,GISWNSGSIGPADSVK,VGRGGGYFDY
no signal,0 of 3,0 of 9,GFTFDDYAMH,GISWNSGSIGYASSVQ,VFRGGGYFDY
600 nM,1 of 3,0 of 9,GFTFDDYAMH,GISWNSGSQGYADSGK,VGRGGGYFHY

Excerpt, the final 4 entries:

{"CDR-H1": "GFTFDDYAWH", "CDR-H2": "GISWNSGSIGYADSVK", "CDR-H3": "VGRGGGYFYK", "apparent Kd": "no signal", "detected": "0 of 3", "empty controls": "0 of 9"}
{"CDR-H1": "GAQFDDYAMH", "CDR-H2": "GISWNSGSIGPADSVK", "CDR-H3": "VGRGGGYFDY", "apparent Kd": "8.1 µM", "detected": "1 of 3", "empty controls": "1 of 9"}
{"CDR-H1": "GFTFDDYAMH", "CDR-H2": "GISWNSGSIGYASSVQ", "CDR-H3": "VFRGGGYFDY", "apparent Kd": "no signal", "detected": "0 of 3", "empty controls": "0 of 9"}
{"CDR-H1": "GFTFDDYAMH", "CDR-H2": "GISWNSGSQGYADSGK", "CDR-H3": "VGRGGGYFHY", "apparent Kd": "600 nM", "detected": "1 of 3", "empty controls": "0 of 9"}

Empty control strains, which show no peptide, gave a signal in 21% of pairings with library AAYL51; the median was 34 µM and 95% of these signals were weaker than 1.8 µM. No background was subtracted. Also given: how often the same scFv was detected with the empty control strains.

Source: Engelhart et al. 2022 (doi:10.1038/s41597-022-01779-4), MIT Lincoln Laboratory and A-Alpha Bio; data file from the FLAb repository.